Measured values reported in patent US12565660B2, “Immunomodulating transgenic plants and related methods” (AGRIVIDA, INC., priority 2017, dated 2026).

Settings: 10 minute digestion, 37° C., pH 1.2, 2630 Units pepsin per milliliter

With bovine serum albumin [BSA] the “degradation in simulated gastric fluid (SGF)” value was “significantly degraded”.
